Results as given in patent publication US11661410B2 (GLOBAL BLOOD THERAPEUTICS, INC., priority 2017, dated 2023).

Biological target: mu (μ) opiate (OP3) receptor (Homo sapiens (Human), UniProt P35372)
Assay: Safety pharmacological profiling: mu opiate receptor ligand binding
Details: compound at 10 μM, in duplicate; ligand binding to cell membranes

COc1cc2nc3c(c(NC4CCN(C(C)C)CC4)c2cc1OC)CCC3
Mu Opiate percent inhibition: 26%
